Assay results published in patent US20110206604A1, “NITROIMIDAZOLE-AMINO ACID HYPOXIA CONTRAST MEDIUM, PREPARATION METHOD AND USE THEREOF” (priority 2008, published 2011).
Where “and” joins values, the source holds several entries; their conditions need not be identical. Equal values may be shown once. Read-outs that look alike come from different tables or passages of the source.

Tested on: breast cancer cells
Settings: mice with breast cancer cells on the legs, γ-camera image after intravenous injection, panel or time point not given

Row | T/M (FIG. 13) | T/M (FIG. 12) | Substance
1 | 2.2 and 1.5 | – | ^99mTc L-aspartic acid [reference compound]
2 | 4.3 and 4.1 | 4.3 and 3.7 | ^99mTc L-aspartic acid-methyl-nitroimidazole
